Assay outcomes: PubChem BioAssay, Broad Institute
Sampled rows, rich in hits. Any-hit rate of the full collection: about 1.3%.
SR-BI DiI inh: mouse SR-BI HDL lipid transfer inhibition; Q61009; ldlA[mSR-BI] CHO cells, DiI-HDL uptake fluorescence, 3 h; inhibition, % at 12.5 µM; 320,000 tested, 0.96% active; AID 488896;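 active = mean replicate inhibition of at least 70% and a set share of replicates each scoring 70 or more; inconclusive = meets just one of the two criteria; inactive = fails both criteria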
SR-BI uptake up: enhances SR-BI lipid uptake from DiI-HDL | 320,000 tested, 0.096% active | CHO ldlA[mSR-BI] cells, DiI-HDL uptake fluorescence, 3 h; 100 = double the neutral-control signal | activation, % at 12.5 µM;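 active = mean replicate activation of at least 60% and every replicate at or above 60%; inconclusive = mean or all-replicate condition met, but not both; inactive = mean below 60% and not all replicates reaching 60%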
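Assay system: CHO ldlA[mSR-BI] cells, LDL receptor-null, SR-BI overexpressing; medium: Ham's F12 with 0.5% BSA, HEPES 25 mM, pH 7.4; also added: DiI-HDL 10 µg/mL; timing: 3 h uptake period with compound, 37 °C; signal: DiI fluorescence, bottom read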
Yeast UUG start: modulators of start codon recognition fidelity in yeast. S. cerevisiae UUG-firefly luciferase reporter, luminescence/redox ratio. activity score, % at 18.7 µM. 0.13% of 350,000 active. AID 602363;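 active = replicate mean at a twofold rise or more, about +100% in these data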;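 also: firefly luciferase made from a UUG start codon reports start codon fidelity; reporter light over untreated wells divided by growth signal over untreated wells; some hits fall short of that in this replicate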
INS-1E GSIS act: GLuc luminescence reporter in INS-1E cells, primary screen for activators of glucose-dependent secretion of insulin; activation, % at 16.6 µM; 370,000 tested, 0.61% active; AID 743287; INS-1E GLuc reporter insulin secretion, 2-3 h;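 active = lowest replicate activation of at least 40%, so every replicate reaches that level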
Numbers stand for hits.

For Cc1noc(C)c1NC(=O)N1C[C@@H](O)COC[C@@H]2O[C@H](CC(=O)N[C@H]3CCN(Cc4ccccc4)C3)CC[C@H]21 the results were INS-1E GSIS act inactive.
For COc1ccc(S(=O)(=O)N[C@@H]2CC[C@@H](CCn3cc(-c4ccccc4F)nn3)O[C@@H]2CO)cc1 the results were Yeast UUG start inactive and INS-1E GSIS act inactive.
For Cc1cccc2sc(NNC(=O)c3ccc(S(=O)(=O)N4CCc5ccccc5C4)cc3)nc12 the results were SR-BI DiI inh 125, SR-BI uptake up inactive, Yeast UUG start inactive and INS-1E GSIS act inactive.
Cc1cc(C)c2nc(NNC(=O)c3ccc(S(=O)(=O)N4CCCCC4)cc3)sc2c1 was read as SR-BI DiI inh 76, SR-BI uptake up inactive and Yeast UUG start inactive.
For Cc1cccc2sc(NC(=O)c3cccc(S(=O)(=O)N4CCc5ccccc54)c3)nc12 the results were SR-BI DiI inh inactive, SR-BI uptake up inactive and INS-1E GSIS act inactive.
Screening Cc1cccc2sc(NNC(=O)c3ccc(S(=O)(=O)N4CCCC(C)C4)cc3)nc12 (stereo unspecified) returned SR-BI DiI inh 128, SR-BI uptake up inactive, Yeast UUG start inactive and INS-1E GSIS act inactive.
`COc1ccc(NC(=O)Nc2ccc3c(c2)CC(=O)N([C@H](C)CO)C[C@@H](C)[C@H](CN(C)S(=O)(=O)c2c(C)noc2C)O3)cc1` gave Yeast UUG start inactive and INS-1E GSIS act inactive.
Screening O=C1C=C(O)CC(c2ccc(Cl)cc2)C1 (stereo unspecified) returned SR-BI DiI inh inactive, SR-BI uptake up inactive and Yeast UUG start inactive.
Oc1c(Cl)cc(Cl)cc1C1=NNC(c2ccc(Cl)cc2)C1 (stereo unspecified) was read as SR-BI DiI inh 84 and SR-BI uptake up inactive.
For Oc1ccc(Cl)cc1C1=NNC(c2ccc(Cl)cc2)C1 (stereo unspecified) the results were SR-BI DiI inh 84, SR-BI uptake up inactive and INS-1E GSIS act inactive.
For Oc1ccc(Cl)cc1C1=NNC(c2cc(Br)cc3c2OCOC3)C1 (stereo unspecified) the results were SR-BI DiI inh inactive, SR-BI uptake up inactive and INS-1E GSIS act inactive.
`CCOc1ccccc1NC(=O)c1ccc(OCC)c([N+](=O)[O-])c1` gave SR-BI DiI inh inconclusive, SR-BI uptake up inactive and INS-1E GSIS act inactive.
`CCOc1ccc(C(=O)Nc2cccc(-c3cc4ccccc4oc3=O)c2)cc1[N+](=O)[O-]` gave SR-BI DiI inh 80, SR-BI uptake up inactive and Yeast UUG start inactive.
Screening CCOc1ccc(C(=O)Nc2ccc(NC(=O)c3cccs3)cc2)cc1[N+](=O)[O-] returned SR-BI DiI inh inactive, SR-BI uptake up inactive, Yeast UUG start inactive and INS-1E GSIS act 104.
CCOc1ccc(C(=O)NC(=S)Nc2ccc(NC(=O)c3ccco3)cc2)cc1[N+](=O)[O-] was read as SR-BI DiI inh inactive, SR-BI uptake up inactive and INS-1E GSIS act 43.
Screening COc1cc(C(=O)NC(=S)Nc2ccc(NC(=O)c3ccco3)cc2)cc(OC)c1OC returned SR-BI DiI inh inactive, SR-BI uptake up inactive and INS-1E GSIS act inactive.
Screening C[C@@H]1CN([C@H](C)CO)S(=O)(=O)c2ccc(C3=CCCCC3)cc2O[C@H]1CN(C)C(=O)Nc1ccc2c(c1)OCO2 returned INS-1E GSIS act inactive.
Screening COc1ccc(/C=N\NC(=O)c2ccccc2)cc1COc1ccc(F)cc1 returned SR-BI DiI inh inactive, SR-BI uptake up inactive, Yeast UUG start inactive and INS-1E GSIS act inactive.
CCCc1c(C(=O)N/N=C/c2ccc(OC)c(OCc3ccccc3)c2)nnn1-c1nonc1N was read as SR-BI DiI inh inactive, SR-BI uptake up inactive, Yeast UUG start inactive and INS-1E GSIS act inactive.
CCN(CC)c1ccc(/C=N/NC(=O)c2ccoc2C)c(O)c1 was read as SR-BI DiI inh 100, SR-BI uptake up inactive, Yeast UUG start inactive and INS-1E GSIS act inactive.
`CN(Cc1c(C(=O)N/N=C/c2ccccc2O)nnn1-c1nonc1N)C1CCCCC1` gave Yeast UUG start inactive and INS-1E GSIS act 518.
Screening CN(Cc1c(C(=O)N/N=C/c2cccc(O)c2)nnn1-c1nonc1N)C1CCCCC1 returned SR-BI DiI inh inactive, SR-BI uptake up inactive, Yeast UUG start inactive and INS-1E GSIS act inactive.
CCCc1c(C(=O)N/N=C/c2ccc(OCc3ccccc3)c(OC)c2)nnn1-c1nonc1N was read as SR-BI DiI inh 76, SR-BI uptake up inactive, Yeast UUG start inactive and INS-1E GSIS act inactive.
Screening COc1ccc(/C=N\NC(=O)c2ccccc2Br)cc1COc1ccc(F)cc1 returned SR-BI DiI inh 79, SR-BI uptake up inactive, Yeast UUG start inactive and INS-1E GSIS act inactive.
For COc1ccc(NC(=O)C(OC(=O)c2ccccc2)c2cccs2)cc1 (stereo unspecified) the results were Yeast UUG start inactive.
Screening CC(C)c1c(C(=O)N/N=C/c2ccc3c(c2)OCO3)nnn1-c1nonc1N returned SR-BI DiI inh inactive, SR-BI uptake up inactive, Yeast UUG start inactive and INS-1E GSIS act inactive.
`CCCc1c(C(=O)N/N=C/c2ccccc2OCc2ccc(F)cc2)nnn1-c1nonc1N` gave SR-BI DiI inh 85, SR-BI uptake up inactive, Yeast UUG start inactive and INS-1E GSIS act inactive.
`COc1cc(/C=N/NC(=O)c2cc(C)oc2C)ccc1OCc1ccccc1` gave SR-BI DiI inh 79, SR-BI uptake up inactive, Yeast UUG start inactive and INS-1E GSIS act inactive.
For CCN(CC)c1ccc(/C=N/NC(=O)c2nnn(-c3nonc3N)c2C(C)C)c(O)c1 the results were SR-BI DiI inh 133, SR-BI uptake up inactive, Yeast UUG start inactive and INS-1E GSIS act inactive.
`CCCc1c(C(=O)N/N=C/c2ccc(OCc3ccccc3)cc2)nnn1-c1nonc1N` gave Yeast UUG start inactive and INS-1E GSIS act inactive.
Screening CO[C@H]1CN(C)C(=O)c2cc(NC(=O)CC(F)(F)F)ccc2OC[C@H](C)N(S(=O)(=O)c2cn(C)cn2)C[C@H]1C returned Yeast UUG start inactive and INS-1E GSIS act inactive.
CCCCc1cc(=O)oc2c(C)c(OCC(=O)N3CCCC3)ccc12 was read as SR-BI DiI inh 76, SR-BI uptake up inactive and Yeast UUG start inactive.
`Cc1cc(=O)oc2c(C)c(OCC(=O)N3CCN(c4ccccc4)CC3)ccc12` gave SR-BI DiI inh inactive, SR-BI uptake up inactive, Yeast UUG start inactive and INS-1E GSIS act inactive.
For Cc1cc(=O)oc2c(C)c(OCC(=O)N3CCN(C(=O)C4COc5ccccc5O4)CC3)ccc12 (stereo unspecified) the results were SR-BI DiI inh 85, SR-BI uptake up inactive, Yeast UUG start inactive and INS-1E GSIS act inactive.
CCCCc1cc(=O)oc2c(C)c(OCC(=O)N3CCC(C(=O)O)(c4ccccc4)CC3)ccc12 was read as SR-BI DiI inh inactive, SR-BI uptake up inactive, Yeast UUG start inactive and INS-1E GSIS act inactive.
For CCC(=O)N1CC2(C1)[C@@H](c1ccc(-c3cccc(OC)c3)cc1)[C@@H](CO)N2C(C)=O the results were INS-1E GSIS act inactive.
COCCSc1ccccc1C(=O)Nc1cc([N+](=O)[O-])ccc1OC was read as SR-BI DiI inh 83, SR-BI uptake up inactive and INS-1E GSIS act inactive.
